# Test results as given in patent publication US20220017444A1, “BENZ[…] SURFACTANTS” (INDORAMA VENTURES OXIDES LLC, priority 2018, published 2022).
# Experiment: Surface tensiometer characterization: critical micelle concentration and surface tension
# Assay type: physicochemical
# Settings: surface tensiometer, FIG. 1
# From the text: Dibenzhydryl resorcinol ethoxylates produced in Example 2 were characterized using a surface tensiometer to determine critical micelle concentration and surface tension.
substance,measurement,setting,value
Tribenzyhydryl phenol ethoxylate,critical micelle concentration,,16.5 mg/L
same,"surface properties (surface tension, critical micelle concentration)",result in words,typical for conventional nonionic surfactants
